# PMC9271465 (ESMO Open, 2022)
# Protein sequences, listed by entry. Tags and fused reporters are not part of them. Residues count along the entry.
# UniProt P00533, 25-1210 T790M: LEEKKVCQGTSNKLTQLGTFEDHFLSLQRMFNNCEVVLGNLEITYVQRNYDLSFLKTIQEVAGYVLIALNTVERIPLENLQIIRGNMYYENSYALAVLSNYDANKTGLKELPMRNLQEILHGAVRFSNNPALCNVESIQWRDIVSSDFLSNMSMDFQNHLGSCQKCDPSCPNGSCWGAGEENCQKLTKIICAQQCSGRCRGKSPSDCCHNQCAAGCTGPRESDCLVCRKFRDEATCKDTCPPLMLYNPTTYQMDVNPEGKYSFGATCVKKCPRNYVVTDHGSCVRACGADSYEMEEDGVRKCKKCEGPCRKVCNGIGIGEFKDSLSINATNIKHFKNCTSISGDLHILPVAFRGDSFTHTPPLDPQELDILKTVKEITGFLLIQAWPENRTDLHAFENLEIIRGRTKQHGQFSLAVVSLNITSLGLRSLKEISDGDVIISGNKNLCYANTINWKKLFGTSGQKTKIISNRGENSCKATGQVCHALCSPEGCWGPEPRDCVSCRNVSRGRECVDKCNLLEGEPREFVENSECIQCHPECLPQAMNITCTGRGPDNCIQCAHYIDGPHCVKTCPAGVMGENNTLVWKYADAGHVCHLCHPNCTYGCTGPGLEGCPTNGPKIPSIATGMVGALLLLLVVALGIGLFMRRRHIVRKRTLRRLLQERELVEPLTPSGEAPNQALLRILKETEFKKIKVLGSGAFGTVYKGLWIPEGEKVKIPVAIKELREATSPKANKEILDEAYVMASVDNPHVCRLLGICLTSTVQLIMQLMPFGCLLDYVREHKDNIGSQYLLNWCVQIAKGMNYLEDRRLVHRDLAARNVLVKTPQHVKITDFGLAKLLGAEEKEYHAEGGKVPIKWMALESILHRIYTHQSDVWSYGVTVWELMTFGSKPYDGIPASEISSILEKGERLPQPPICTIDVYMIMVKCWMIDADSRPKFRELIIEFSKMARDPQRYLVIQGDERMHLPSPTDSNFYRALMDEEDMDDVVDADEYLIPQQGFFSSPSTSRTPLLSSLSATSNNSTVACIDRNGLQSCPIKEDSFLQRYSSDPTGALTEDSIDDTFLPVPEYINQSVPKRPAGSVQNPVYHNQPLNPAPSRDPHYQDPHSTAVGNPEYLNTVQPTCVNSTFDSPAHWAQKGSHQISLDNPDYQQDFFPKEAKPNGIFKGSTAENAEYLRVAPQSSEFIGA
# Assays:
# EGFR T790M = EGFR T790M (Homo sapiens, UniProt P00533, T790M); assay: kinase inhibition, EGFR T790M; format: biochemical; conditions: read-out: IC50 against EGFR T790M; kinase level; unpublished data
# EGFR-mutated NSCLC = conditions: cited from earlier work
SMILES,IC50 (EGFR T790M),median overall survival (OS) (EGFR-mutated NSCLC),median progression-free survival (PFS) (EGFR-mutated NSCLC)
C=CC(=O)Nc1cc(Nc2ncc(Cl)c(Nc3ccccc3C(=O)C(=O)N(C)C)n2)c(OC)cc1N1CCN(C)CC1 [BPI-15086],15.7 nM,,
COc1cc2ncnc(Nc3ccc(F)c(Cl)c3)c2cc1OCCCN1CCOCC1 [gefitinib],,19.3-30.5 months,9.7-10.8 months
